Tests used:
[1] = Thermal stability by nanoDSF; type: physicochemical; details: His-tagged variants and commercial WT; 20 to 95° C. at 1° C./min
Protocol: Thermal stability measurements. Thermal stability of BSA and HSA variants (His-tagged form) and of commercial WT HSA and BSA (Sigma-Aldrich A1653 and A7638, respectively) was measured by nanoscale differential scanning fluorimetry (nanoDSF), in Prometheus NT.48 instrument (NanoTemper). The temperature was increased from 20° C. to 95° C. at 1° C./min ramp. Thermal stability of HSA variants was also measured by differential scanning calorimetry (DCS) in VP-DSC instrument (Malvern), with heating from 20° C. to 95° C. at 1° C./min and cooling at the same rate.

HEK293T cells = assay: HEK293T cell culture with albumin variants; type: cell-based, human; details: 1 mg/ml albumin, medium with 5% FBS, 5 days
Protocol: HEK293T adherent cells were grown in DMEM supplemented with GlutaMAX, NEAA and 5% FBS (all from Gibco) at 37° C., 5% CO2. To test the viability of the cultured cells in the presence of PROSS BSA2, HSA1 and HSA3 in comparison to the commercial BSA or HSA, respectively, cells (˜3×10^3) were seeded in 24-well plate and followed each day for 5 days. All the albumin variants were added to the cells at 1 mg/ml in duplicates, and their effect was analyzed. As a control, no protein was added to the growth medium. In each time point, cells were collected and the number of total cells, live cells and % of viable cells were determined automatically using Brightfield Cell Counter DeNovix.

HSA WT: wild type human serum albumin, SEQ ID NO: 1; commercial sample Sigma-Aldrich A1653 used as control [reference compound]
Melting temperature nanoDSF [1]: 60 °C
Effect on number of HEK293T cells (HEK293T cells): no adverse effect
Effect on viability of HEK293T cells (HEK293T cells): no adverse effect
